Measurements published in patent US5672707A (priority 1991, dated 1997).

Experiments:
Format in all cases: in vivo
[1] = tested on: membranes of brain synaptosomes; experiment: Microviscosity of brain synaptosome membranes, amnestic syndrome model; conditions: rats, scopolamine 20 days, then drug 10 days
[2] = tested on: membranes of brain synaptosomes; experiment: Microviscosity of brain synaptosome membranes, old rats; conditions: old rats (18 month), 20 days application
Protocol: Microviscosity of membranes of brain synaptosomes was studied with the use of molecular probe pirren. Brain tissue homogenization and preparation of synaptosomes were performed by the method of De Robertis.
Improvement of animal performance was accompanied by the normalizing of brain synaptosomes microviscosity under the action of all the substances tested. […] The latter observation indicates to the possible interference of amiridine and substance Vo into the processes of atherogenesis in old animals.

brain synaptosomes = experiment: Cholesterol content in brain synaptosomes, old rats; conditions: old rats (18 month), 20 days application

## NC(=O)CN1CCCC1=O [Piracetam, piracetam, reference compound]
[1]
  Microviscosity changes in % to control: 102.6 % to control
[2]
  Microviscosity changes (% to control): 101.8 % to control
Brain synaptosomes
  Cholesterol content in synaptosomes (% from total lipid content): 35.1 ± 1.0 % from total lipid content
